Laboratory results reported in article PMC12480751, “A quantitative high-throughput screening pipeline to identify small molecule inhibitors of Chikungunya nsP2 protease” (Scientific Reports, 2025).

Tested on: SNB19 cells
Experiment: CellTiter-Glo cell viability assay of SNB19 cells
Type: cell-based, human
Conditions: read-out: CC50, SNB19 viability, 48 h

## Oc1ccc(CNc2ccccc2F)c2cccnc12
  CC50: 440 nM
